Assay results published in PubChem BioAssay (NCI).
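A five-concentration, 48-hour dose response in 96-well plates underlies each endpoint, interpolated linearly between surrounding concentrations. GI50 is the concentration that inhibits growth by half. The concentration for full growth arrest is given as TGI.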

Tested on: MDA-MB-468 breast
Test: NCI tumour cell line growth inhibition, 48 h

`CCN(CC)[P+](c1ccc(OC)cc1OC)(N(CC)CC)N(CC)CC` showed a GI50 of 0.409 µM and a TGI of 6.23 µM.
